Results on one molecule are retold here after BigSolDB 2.1.

Broadly, the solubility (mole fraction) is the moles of solute divided by all moles in the saturated solution.

For this data set the following is noted: in n-butanol, 293.2 K.

On to `CC(C)(C)NSc1nc2ccccc2s1`, for which the solubility (mole fraction) amounted to 0.0325.
